# Yeast mating assay 2: variants of the scFv Ab-95

Reference: Engelhart et al. 2022, doi:10.1038/s41597-022-01779-4. File: FLAb, binding data.

Antigen: PDVDLGDISGINAS, a 14-residue peptide of the SARS-CoV-2 spike HR2 region.

The variants keep the heavy chain, the linker and the frameworks of Ab-95 (scFv order VH, three GGGGS repeats, VL).
VH: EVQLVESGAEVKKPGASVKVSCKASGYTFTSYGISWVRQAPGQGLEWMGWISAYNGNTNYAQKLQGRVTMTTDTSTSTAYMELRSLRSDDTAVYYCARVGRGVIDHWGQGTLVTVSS
VL: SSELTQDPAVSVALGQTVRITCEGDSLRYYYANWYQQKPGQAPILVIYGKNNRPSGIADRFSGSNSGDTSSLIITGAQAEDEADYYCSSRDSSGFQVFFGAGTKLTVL

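The starting antibody came from a phage panning campaign against this peptide. Variants in AAYL52 differ from the parent at up to three CDR positions; double and triple changes were sampled at random. AlphaSeq pools MATa yeast showing the antibodies with MATalpha yeast showing the peptide. Mating (16 h, 30 °C) was followed by selection of diploids and sequencing of their barcodes. Each replicate has its own calibration line, from reference interactions of the BCL2 family. The assay was run in three technical replicates.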

Each variant is given by its three light chain CDRs, as the data file delimits them; those of the parent are EGDSLRYYYAN, GKNNRPS, SSRDSSGFQVF.
This list gathers variants with a substitution at R90 (VL, numbered from residue 1).
The read-out is the apparent dissociation constant on a log10 scale (nM): the lower, the stronger.
A mean of the replicates is given; it leaves out those without a signal.
"nd" marks a missing value. The strain was present, yet no cells mated with the target were sequenced in that replicate, which points to weak or no binding.
Order: sorted from the lowest average up, undetected variants last.

For EGDSLRYYYAN / GKNNRPT / SSTDSSGFQVF, the assay gave 1.76, 1.63, 1.59 (mean 1.66). The variant EGDSLRYYDAN / GKNNRPS / SSCDSSGFRVF showed 2.18, 2.03, 1.76 (mean 1.99). With EGTSLNYYYAN / GKNNRPS / SSCDSSGFQVF the result was 2.23, 2.48, 2.09 (mean 2.27). The variant EGDSLRSYYAN / GKNNRPV / SSCDSSGFQVF gave nd, 2.57, nd. The variant EGDSLRYYYAN / GVNNRPS / SANDSSGFQVF showed 3.07, 3.06, 2.26 (mean 2.79). The variant EGDSLRYYYAN / GMNNRPS / SSGDSVGFQVF gave 3.52, 2.29, 2.67 (mean 2.83). For EGDSLRYTYAN / GKNNYPS / SSHDSSGFQVF, the assay gave 3.04, 3.04, 2.65 (mean 2.91). With EGDSLRYYYAN / GKNNRPP / SSYDSQGFQVF the result was nd, 3.63, 2.35 (mean 2.99). The variant LGDSLRYYYAN / GKNNRPE / SSCDSSGFQVF showed 3.11, 3.20, 2.76 (mean 3.02).

The variant EGFSLRYYYPN / GKNNRPS / SSWDSSGFQVF showed 3.08, 3.49, 2.96 (mean 3.18). With EGDSLRYYYAN / GKNNRPS / SSPYSSGPQVF the result was nd, 3.28, 3.39 (mean 3.34). For EGDSLTYYYAN / GKNNRWS / SSIDSSGFQVF, the assay gave nd, 3.39, nd. With EGDSLRMYYAN / GKNNRPS / SSMASSGFQVF the result was 3.19, nd, 3.71 (mean 3.45). For EQDSLRYYYMN / GKNNRPS / SSKDSSGFQVF, the assay gave nd, 3.46, nd. The variant EGDSLRKYYAN / GKNNRPS / SSLDSSNFQVF showed nd, 4.24, 2.92 (mean 3.58). The variant EGDSLRWYYAN / GKNNRPC / SSYDSSGFQVF showed 4.21, 3.50, 3.07 (mean 3.59). The variant EGDSLRYYLAN / GKNNRPS / WSDDSSGFQVF gave 3.63, nd, nd. For EGDSLRAYYAN / GKNSRPS / SSSDSSGFQVF, the assay gave 3.64, nd, nd.

The variant EGDSLRYYYAN / GKNNFPS / SSSDSSGIQVF gave 3.66, nd, nd. With EGDSLRYYEAN / GKNNRPS / SSSDSSGFQVF the result was 3.58, 3.76, nd (mean 3.67). For EGDSLRYYYLG / GKNNRPS / SSCDSSGFQVF, the assay gave 3.67, nd, nd. The variant PGDSLRYYYAN / GKNNRPS / SSSDISGFQVF gave 3.21, 3.77, 4.10 (mean 3.69). The variant EGDSGMYYYAN / GKNNRPS / SSFDSSGFQVF showed nd, 3.71, nd. With EGDSLRYYYAN / GKNNRWS / SSYDSSGFQVF the result was nd, 3.73, nd. With EGDSLRYYYAN / GKNNRPS / YNCDSSGFQVF the result was 2.53, 4.30, 4.40 (mean 3.74). The variant EGDSLRYYYAN / GKNNRPS / SSHDSSTFQDF gave 3.53, 3.26, 4.75 (mean 3.85). With EGNSLRYYYAN / GKNNRPS / SSLGSSGFQVF the result was 4.29, 3.54, nd (mean 3.92).

For EGDSLRYYYAN / GKNNRPS / FSDRSSGFQVF, the assay gave 3.65, nd, 4.28 (mean 3.96). The variant EGRSLRKYYAN / GKNNRPS / SSKDSSGFQVF showed 3.04, 4.93, nd (mean 3.99). For EGDSLRYYYAN / GKENRPS / SSVDSSGFQVF, the assay gave nd, 3.79, 4.37 (mean 4.08). The variant EGTSLRYYYAN / GKNNRPS / SSADSSLFQVF gave 4.10, nd, nd. With EGDSLRYYYAK / GKNNRPS / SSEDSSGWQVF the result was nd, 4.15, nd. With EGSSLRYYYAN / MKNNRPS / SSPDSSGFQVF the result was 4.72, 4.24, 3.95 (mean 4.30). The variant EGDSVRYYYAN / PKNNRPS / SSCDSSGFQVF gave 4.31, nd, nd. For EGDSLRYYYAN / GKNNPPS / SMLDSSGFQVF, the assay gave nd, 4.42, nd. With EGDSLRYYYAN / GKVNRPS / SSLDSSSFQVF the result was 5.41, 3.48, nd (mean 4.44).

The variant EGDKLRYYYAN / GKNNRPS / SSKDSSGFCVF gave nd, 4.70, nd. For IGDSLRYYYAN / CKNNRPS / SSYDSSGFQVF, the assay gave nd, 5.68, nd. With EPDSLRYYYAN / GKNNYPS / SSKDSSGFQVF the result was nd, nd, nd. The variant FGDSLRYYMAN / GKNNRPS / SSQDSSGFQVF showed nd, nd, nd. The variant EGDSWRYYYQN / GKNNRPS / SSMDSSGFQVF gave nd, nd, nd. The variant EGDSLRYYYAN / GNNNRPS / SSKISSGFQVF gave nd, nd, nd. The variant EGDSLRYYYAN / GKNNRPL / GSEDSSGFQVF showed nd, nd, nd. For EGDSLRYPYAN / GKNNRPS / SSIDSSGFQVK, the assay gave nd, nd, nd. The variant EGDSRRYYYAN / GKQNRPS / SSPDSSGFQVF gave nd, nd, nd.

With EGDSLRYYYAN / NKNNRPS / SSTDSSGFDVF the result was nd, nd, nd. The variant EGKSLRYYYAN / GKTNRPS / SSFDSSGFQVF showed nd, nd, nd. The variant EGDSLRYYYAN / GKNNEPS / SLWDSSGFQVF gave nd, nd, nd. With EGDSLRYYYAN / WKNNRPS / SLLDSSGFQVF the result was nd, nd, nd. The variant EGDSLRYYYAN / GKNNRPS / SSNDCSGFQVF gave nd, nd, nd. With EGDSLRYWYAN / GKNNRPS / SSQDSSGFQVF the result was nd, nd, nd.

6 of these entries, quoted again:

With EGDSLRYYYAN / GKNNRPS / FSDRSSGFQVF the result was 3.65, nd, 4.28 (mean 3.96).
With EGDSLRYYYAN / GKENRPS / SSVDSSGFQVF the result was nd, 3.79, 4.37 (mean 4.08).
With EGDSLRYYYAN / GKNNPPS / SMLDSSGFQVF the result was nd, 4.42, nd.
With EGTSLRYYYAN / GKNNRPS / SSADSSLFQVF the result was 4.10, nd, nd.
With EGDSLRYYYAN / GKNNRPT / SSTDSSGFQVF the result was 1.76, 1.63, 1.59 (mean 1.66).
With EGDSLRYYYAN / GKNNEPS / SLWDSSGFQVF the result was nd, nd, nd.

Three control strains display no target. For library AAYL52, 28% of the pairings with them gave a signal, with a median of 3.91 and one signal in twenty below 2.90, so weak values seen in few replicates may be background.